Values quoted from earlier work in US20120015919A1, “THERAPIES FOR TREATING CANCER USING COMBINATIONS OF COX-2 INHIBITORS AND AROMATASE INHIBITORS OR COMBINATIONS OF COX-2 INHIBITORS AND ESTROGEN RECEPTOR ANTAGONISTS” (Tragara Pharmaceuticals, Inc., priority 2007, published 2012).
Where two headings read alike, the source gives them in different places.

Chains of the proteins cited; added tags and fusions are not shown.
UniProt P03372, whole entry: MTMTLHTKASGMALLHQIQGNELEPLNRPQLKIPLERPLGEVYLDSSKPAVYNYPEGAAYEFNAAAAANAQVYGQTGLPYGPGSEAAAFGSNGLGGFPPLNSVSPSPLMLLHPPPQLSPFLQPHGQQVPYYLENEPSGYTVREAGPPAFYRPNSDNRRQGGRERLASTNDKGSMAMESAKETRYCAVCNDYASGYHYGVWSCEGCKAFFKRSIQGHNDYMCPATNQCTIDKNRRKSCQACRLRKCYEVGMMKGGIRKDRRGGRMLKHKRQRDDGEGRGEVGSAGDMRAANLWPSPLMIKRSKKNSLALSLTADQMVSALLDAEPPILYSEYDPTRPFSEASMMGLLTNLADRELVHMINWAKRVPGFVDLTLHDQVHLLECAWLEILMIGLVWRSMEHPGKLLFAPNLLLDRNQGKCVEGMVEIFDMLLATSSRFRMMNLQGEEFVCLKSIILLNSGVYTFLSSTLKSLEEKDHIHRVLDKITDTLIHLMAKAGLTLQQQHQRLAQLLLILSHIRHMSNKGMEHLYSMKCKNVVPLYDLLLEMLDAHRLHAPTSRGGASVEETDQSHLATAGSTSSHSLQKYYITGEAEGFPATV

Tests used:
estrogen receptor = estrogen receptor (Homo sapiens, UniProt P03372); details: relative to estradiol; cited from earlier work
[1] = tested on: HER2-positive breast cancer cell lines (BT474 and SKBR3); details: cited from earlier work

Compound	affinity for the estrogen receptor (estrogen receptor)	cells in G0/G1 arrest following trastuzumab exposure ([1]; trastuzumab-resistant cells) [%]	cells in S-phase following trastuzumab exposure ([1]; trastuzumab-resistant cells) [%]	cells in G0/G1 arrest following trastuzumab exposure ([1]; trastuzumab-sensitive cells) [%]
C[C@]12CC[C@@H]3c4ccc(O)cc4C[C@@H](CCCCCCCCC[S+]([O-])CCCC(F)(F)C(F)(F)F)[C@H]3[C@@H]1CC[C@@H]2O (stereo partly shown) [Fulvestrant]	comparable to estradiol	–	–	–
trastuzumab: monoclonal antibody that blocks the effects of the growth factor protein HER2	–	68	14	84
